Source: patent US12514853B2, “Therapeutic dendrimer” (Starpharma Pty Ltd, priority 2018, dated 2026)

Experiments:
[1] = Single dose pharmacokinetic study in rats; settings: rat, single slow bolus IV, irinotecan 70 mg/kg; not detectable after 24 hours
[2] = system: Metastatic Colorectal Cancer; settings: cited from earlier work

CCc1c2c(nc3ccc(OC(=O)N4CCC(N5CCCCC5)CC4)cc13)-c1cc3c(c(=O)n1C2)COC(=O)[C@]3(O)CC [Irinotecan, reference compound]
Free SN-38 at 120 hours [1]: Not detectable

cetuximab: anti-epidermal growth factor receptor (EGFR, also known as ErbB-1 or HER-1) antibody
tumour response, OR ([2]; cetuximab added to standard chemotherapy regimen vs chemotherapy alone, p=0.004): 1.40 | risk of progression, HR ([2]; cetuximab added to standard chemotherapy regimen vs chemotherapy alone, p=0.048): 0.85 | OS, HR ([2]; cetuximab added to standard chemotherapy regimen vs chemotherapy alone, p=0.31): 0.93 | risk of progression (time) ([2]; cetuximab added to standard chemotherapy regimen, vs 8 months for chemotherapy alone): 8.9 months | OS ([2]; cetuximab added to standard chemotherapy regimen, vs 18.6, not statistically significant): 19.9 | tumour response ([2]; cetuximab added to standard chemotherapy regimen, vs 38.7% for chemotherapy alone): 46.9%
